Measurements as given in patent publication US10556889B1, “Salvinorin derivatives” (Blue Sky Pharmaceuticals, LLC, priority 2018, dated 2020).

Amino acid sequences for entries named in this document (tags omitted).
UniProt P42866, whole entry: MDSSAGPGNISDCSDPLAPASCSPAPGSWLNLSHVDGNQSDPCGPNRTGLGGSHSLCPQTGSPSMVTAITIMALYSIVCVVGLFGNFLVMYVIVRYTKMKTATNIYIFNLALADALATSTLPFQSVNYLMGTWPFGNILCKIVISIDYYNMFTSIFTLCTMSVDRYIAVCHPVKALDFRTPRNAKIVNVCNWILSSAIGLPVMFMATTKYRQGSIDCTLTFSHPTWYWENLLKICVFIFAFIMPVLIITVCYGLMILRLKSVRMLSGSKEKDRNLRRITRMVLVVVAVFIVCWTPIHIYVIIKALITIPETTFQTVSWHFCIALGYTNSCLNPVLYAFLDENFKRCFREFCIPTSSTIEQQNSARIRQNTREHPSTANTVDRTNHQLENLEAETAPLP

Legend:
[1] = biological target: T1, uOR (Mus musculus, UniProt P42866); test: β-arrestin recruitment to uOR / receptor internalization; type: cell-based; design: expressed in transfected cells
Description: The data provided in Tables 1A and 1B below were obtained using standard analytical techniques known to those skilled in the art. Such techniques are described in detail in C.
[…] were transiently transfected (electroporation) with combinations of cDNA for hemagglutinin (HA-N terminus)-tagged uOR, beta-arrestin2 tagged with green fluorescent protein, mouse uOR tagged at the C terminus with yellow fluorescent protein and GRK-2. […] After addition of drug, cells were visualized using confocal microscopy. Multiple cells were recorded per dish after more than four separate transfection experiments—representative cells are shown in the manuscript.
The “β-arrestin Recruitment EC50±SEM” column in Table 2 below represents the degree to which each tested compound recruited beta-arrestin to interact with uOR. As will be appreciated by those skilled in the art, EC50 refers to the concentration of a drug which induces a response halfway between the baseline and maximum after a specified exposure time. In this instance, lower values indicate greater potency of the molecule, and this is […].
As will also be understood by those skilled in the art, “Max Fold Efficacy” refers to the maximum signal/background ratio that an agonist will induce or, conversely, that an antagonist will inhibit an agonist from inducing a response. […]

[2] = biological target: T1, uOR; test: Agonist induced ERK 1/2 phosphorylation (efficacy and potency relative to DAMGO)

Question: Which EC50 [1] does the source give for `COC(=O)[C@@H]1C[C@H](OC(=O)c2ccc(Br)cc2)C(=O)[C@H]2[C@@]1(C)CC[C@H]1C(=O)O[C@H](c3ccoc3)C[C@]21C` here?
Answer: Its EC50 is > 10 µM.

Question: What about the “Max Fold Efficacy” value [1] of the same molecule?
Answer: The value was 2.7.

Question: What about the EC50 [2] of the same molecule?
Answer: The EC50 was 6.85 µM.
